Results on one compound are retold here after patent US7635703B2, “Imidazole substituted pyrazole kinase inhibitors” (Janssen Pharmaceutica N.V., priority 2006, dated 2009).

Amino acid sequences for entries named in this document (tags omitted). Residues count along the entry.
UniProt P04626, 679-1255: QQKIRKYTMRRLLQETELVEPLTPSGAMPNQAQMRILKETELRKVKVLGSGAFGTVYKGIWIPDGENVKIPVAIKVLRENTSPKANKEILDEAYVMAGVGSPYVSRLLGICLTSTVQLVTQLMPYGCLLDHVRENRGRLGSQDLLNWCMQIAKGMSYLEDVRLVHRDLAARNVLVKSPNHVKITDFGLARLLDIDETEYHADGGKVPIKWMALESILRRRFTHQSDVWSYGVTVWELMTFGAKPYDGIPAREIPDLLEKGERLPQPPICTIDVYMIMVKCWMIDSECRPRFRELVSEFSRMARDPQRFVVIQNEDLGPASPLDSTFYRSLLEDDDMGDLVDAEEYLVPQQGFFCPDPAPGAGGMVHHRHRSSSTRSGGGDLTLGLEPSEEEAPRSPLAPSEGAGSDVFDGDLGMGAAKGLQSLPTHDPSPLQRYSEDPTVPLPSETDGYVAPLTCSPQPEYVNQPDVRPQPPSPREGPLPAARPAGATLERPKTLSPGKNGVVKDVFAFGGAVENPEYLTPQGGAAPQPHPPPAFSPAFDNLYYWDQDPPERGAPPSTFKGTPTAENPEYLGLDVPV

This assay concerns the target T1, HER2 (GST/HIS6 fusion, amino acids 679 to 1255 of HER-2) (Homo sapiens, UniProt P04626).
T1 construct: GST (Glutathione-S-Transferase) (N); HIS6 (N); thrombin cleavage site (N); purchased Proqinase, Freiburg, Germany
Briefly: HER2 screening assay (33P-ATP FlashPlate). The class given is biochemical. Particulars: 10 μM ATP, 1 hr at 30° C. On the procedure:
A kinase reaction mixture was prepared containing 50 mM Tris-HCl pH=8, 10 mM MgCl2, 0.1 mM […], 1 mM DTT, 10 μM ATP, 0.025 μM biotinylated histone-H1 peptide substrate and 0.2 μCuries per well ^33P-γ-ATP (2000-3000 Ci/mmol). 70 μL of the kinase reaction mixture was dispensed into the well of a streptavidin coated FlashPlate™ (Cat. # SMP103, NEN, Boston, Mass.).
Test compound stock in 100% DMSO (1 μL) was added to the wells resulting in a final concentration of 1% DMSO in the reaction with a 100 μL final reaction volume. Each enzyme was diluted in 50 mM Tris-HCl pH=8.0, 0.1% BSA and 30 μL was added to each well to initiate the reaction. The reaction was incubated for one hour at 30° C. At the end of the 1 hr incubation, the reaction was terminated by aspirating the mixture from the plate and washing the wells twice with PBS containing 100 mM EDTA. The biotinylated peptide substrate became immobilized on the Flashplate™ and the incorporation of ^33P-γ-ATP was measured by reading the plate on a scintillation counter. Inhibition of the enzymatic activity was measured by observing a reduced amount of ^33P-γ-ATP incorporated into the immobilized peptide. […]
A maximum and minimum signal for the assay was determined on each plate. The percent inhibition of a test compound was calculated according to the formula: […]

Compound `FC(F)(F)c1c[nH]c(-c2n[nH]cc2C=Cc2cncc3ccccc23)n1` [Cpd 4, 4-{2-[3-(4-trifluoromethyl-1H-imidazol-2-yl)-1H-pyrazol-4-yl]-vinyl}-isoquinoline] returned an IC50 of 32.7 µM.
